Measurements taken from US20070219159A1, “CYCLODEXTRIN COMPOSITIONS AND METHODS OF TREATING VIRAL INFECTIONS” (priority 2002, published 2007).

Experiments:
HSV-1 = conditions: in general 1000-fold less drug than Examples 1-6 and 10
HSV-2 = conditions: in general 1000-fold less drug than Examples 1-6 and 10

hydroxypropyl γ-cyclodextrin [HPGCD]
SI = CC50/EC50 (HSV-1): 0
SI = CC50/EC50 (HSV-2): 0
SI = CC50/EC50 (VZV): 0
SI = CC50/EC50 (EBV): > 625
SI = CC50/EC50 (HCMV): 0
SI = CC50/EC50 (MCMV): 0
SI = CC50/EC50 (HHV-6): 0
SI = CC50/EC50 (HHV-7): 0
SI = CC50/EC50 (RSV): 0
SI = CC50/EC50 (PIV): 0
SI = CC50/EC50 (MV): 0
SI = CC50/EC50 (HRV): 0
SI = CC50/EC50 (Ad): 0
SI = CC50/EC50 (Resp syncytial): 0
SI = CC50/EC50 (Rhino): 0
SI = CC50/EC50 (Measles): 0
SI = CC50/EC50 (Punta Toro): 0
SI = CC50/EC50 (Pichinde): 0

methyl-β-cyclodextrin [MBCD]
SI = CC50/EC50 (HSV-1): 0
SI = CC50/EC50 (HSV-2): 0
SI = CC50/EC50 (VZV): 0
SI = CC50/EC50 (EBV): 0
SI = CC50/EC50 (HCMV): 0
SI = CC50/EC50 (MCMV): 0
SI = CC50/EC50 (HHV-6): 0
SI = CC50/EC50 (HHV-7): 0
SI = CC50/EC50 (RSV): 0
SI = CC50/EC50 (PIV): 0
SI = CC50/EC50 (HRV): 0
SI = CC50/EC50 (Ad): 0
SI = CC50/EC50 (Resp syncytial): 0
SI = CC50/EC50 (Rhino): 0
SI = CC50/EC50 (Measles): 0
